{
  "sequences": {"note": "The chains behind the UniProt entries cited, without tags or fusion partners.", "UniProt P62965, whole entry": "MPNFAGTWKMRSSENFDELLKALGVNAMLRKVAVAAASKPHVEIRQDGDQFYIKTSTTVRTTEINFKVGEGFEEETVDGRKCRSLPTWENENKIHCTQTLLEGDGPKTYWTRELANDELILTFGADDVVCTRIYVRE"},
  "source": "ChEMBL document CHEMBL1128411",
  "about": "“Conformationally defined 6-s-trans-retinoic acid analogs. 2. Selective agonists for nuclear receptor binding and transcriptional activity” (J Med Chem, 1995)",
  "biological_target": "Cellular retinoic acid-binding protein 1 (Mus musculus, UniProt P62965)",
  "assay": "Binding affinity for mouse Cytoplasmic retinoic acid binding protein type 1",
  "outline": "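Equilibrium fluorometric titration at 25 °C of recombinant E. coli-expressed apo-proteins (mCRABP-I, mCRABP-II, or hRXRα DEF ligand-binding domain). Ligands came from ethanol stocks, with concentrations set by UV/vis in hexane. Tryptophan fluorescence quenching was read and corrected for inner filter effects. A survey was run at 10^-6 M protein to check stoichiometry.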",
  "data": [
    {"smiles": "CC1=C(/C=C/C(C)=C/C=C/C(C)=C\\C(=O)O)C(C)(C)CCC1", "note": "[ISOTRETINOIN]", "values": [
      {"measurement": "Kd", "value": "> 200", "unit": "nM"}
    ]}
  ]
}
